For one molecule, Ki results are on record in ChEMBL document CHEMBL4251738, “A BODIPY-Tagged Phosphono Peptide as Activity-Based Probe for Human Leukocyte Elastase” (ACS Med Chem Lett, 2018).

The target of the assay is T1, Neutrophil elastase (Homo sapiens, UniProt P08246).
T1 sequence (P08246 whole entry): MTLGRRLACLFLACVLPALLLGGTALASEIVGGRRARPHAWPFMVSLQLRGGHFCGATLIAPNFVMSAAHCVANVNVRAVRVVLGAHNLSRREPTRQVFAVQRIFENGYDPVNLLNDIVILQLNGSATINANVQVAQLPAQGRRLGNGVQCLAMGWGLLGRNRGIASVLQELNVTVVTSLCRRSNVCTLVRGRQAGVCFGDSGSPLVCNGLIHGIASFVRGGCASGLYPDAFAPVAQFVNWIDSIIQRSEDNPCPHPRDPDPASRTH
Briefly: Inhibition of human leukocyte elastase.

The Ki is a dissociation constant, usually derived from enzyme kinetics or from competition with a known ligand. `CC(C)(C)C(=O)Oc1ccc(S(=O)(=O)Nc2ccccc2C(=O)NCC(=O)O)cc1` [SIVELESTAT] yielded a Ki of 37 nM.
